Measurements as given in PMC3537913 (Clinical cancer research : an official journal of the …, 2012).

Test system: soluble VEGFR2 (sVEGFR2)
Details: day 21, p = 0.019

CNC(=O)c1cc(Oc2ccc(NC(=O)Nc3ccc(Cl)c(C(F)(F)F)c3)cc2)ccn1 [sorafenib, Sorafenib tosylate]
correlation of sorafenib steady-state concentrations with inhibition of VEGFR2: inversely correlated

Counter-ions that a name gives are not always drawn.
